Concentration of decitabine data for one compound are collected here from patent publication US9040501B2, “Compositions and methods for treating cancer” (Eisai Inc., priority 2009, dated 2015).

Chains of the proteins cited; added tags and fusions are not shown. Lines headed by an entry give the natural chain unless they say otherwise; changes in a name come on top.
UniProt P32320: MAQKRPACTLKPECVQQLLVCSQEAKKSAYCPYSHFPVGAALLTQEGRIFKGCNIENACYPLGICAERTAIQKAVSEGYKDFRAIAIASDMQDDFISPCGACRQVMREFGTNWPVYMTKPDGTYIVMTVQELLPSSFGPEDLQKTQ

The target of the test is cytidine deaminase (CDA) (Homo sapiens (Human), UniProt P32320). As to conditions: presence of CDA, after 2 hours.

Regarding `Nc1ncn([C@H]2C[C@H](O)[C@@H](CO)O2)c(=O)n1` [decitabine, 5-aza-2′-deoxycytidine], the concentration of decitabine is listed as approximately 0 % control.
